The numbers were not newly measured in US20110082867A1, “SYSTEM, METHOD, AND COMPUTER PROGRAM PRODUCT FOR ANALYZING DRUG INTERACTIONS” (priority 2009, published 2011), which cites them from elsewhere.

Protein sequences, listed by entry. Tags and fused reporters are not part of them.
UniProt P10632, whole entry: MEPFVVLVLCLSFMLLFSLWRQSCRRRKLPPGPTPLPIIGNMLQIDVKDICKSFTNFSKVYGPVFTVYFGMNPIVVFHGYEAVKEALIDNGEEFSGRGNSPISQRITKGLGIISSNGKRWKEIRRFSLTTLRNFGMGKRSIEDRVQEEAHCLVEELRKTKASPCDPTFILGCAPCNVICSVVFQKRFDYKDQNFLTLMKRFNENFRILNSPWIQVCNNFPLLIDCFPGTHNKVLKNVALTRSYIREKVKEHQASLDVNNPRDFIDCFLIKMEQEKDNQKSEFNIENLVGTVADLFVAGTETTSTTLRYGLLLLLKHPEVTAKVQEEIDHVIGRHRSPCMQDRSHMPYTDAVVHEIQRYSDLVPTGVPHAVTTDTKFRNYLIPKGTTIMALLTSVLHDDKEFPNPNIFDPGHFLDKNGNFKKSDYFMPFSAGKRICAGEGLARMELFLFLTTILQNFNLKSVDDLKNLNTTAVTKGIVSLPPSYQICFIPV
UniProt P11712, whole entry: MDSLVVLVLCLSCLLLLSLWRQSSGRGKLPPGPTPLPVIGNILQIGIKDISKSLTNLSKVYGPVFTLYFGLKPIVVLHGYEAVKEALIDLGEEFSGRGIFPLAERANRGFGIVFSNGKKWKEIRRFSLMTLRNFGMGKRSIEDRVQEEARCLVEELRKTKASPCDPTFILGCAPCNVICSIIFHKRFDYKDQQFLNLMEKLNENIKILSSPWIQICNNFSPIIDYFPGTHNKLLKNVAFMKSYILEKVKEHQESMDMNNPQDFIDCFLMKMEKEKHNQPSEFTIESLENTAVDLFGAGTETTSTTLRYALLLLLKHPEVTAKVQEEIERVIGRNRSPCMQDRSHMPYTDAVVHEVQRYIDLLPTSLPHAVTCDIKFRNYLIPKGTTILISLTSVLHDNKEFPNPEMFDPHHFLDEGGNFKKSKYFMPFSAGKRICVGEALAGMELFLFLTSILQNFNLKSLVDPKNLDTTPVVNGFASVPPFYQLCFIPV

Structures are written as SMILES.

The target of one series is CYP 2C8 (Homo sapiens, UniProt P10632). To be noted: Gene CYP 2C8; involvement strength and type.
The target in another series is CYP 2C9 (Homo sapiens, UniProt P11712). To be noted: Gene CYP 2C9; involvement strength and type.

As for `CN(CCOc1ccc(CC2SC(=O)NC2=O)cc1)c1ccccn1` (centres unmarked) [Rosiglitazone], the “Drug Interaction” value on CYP 2C8 and on CYP 2C9 was “Major Substrate” throughout.
